The values that follow are results of earlier work, collected in patent US20020136817A1, “Use of germ flour of certain fruits for the manufacture of food products useful for the treatment of phytate deficiency states” (priority 1999, published 2002).

The conditions of the data set: doses at which maximum excretions are produced; cited from earlier work.

For the compound `O=P(O)(O)O[C@H]1[C@H](OP(=O)(O)O)[C@@H](OP(=O)(O)O)[C@H](OP(=O)(O)O)[C@@H](OP(=O)(O)O)[C@H]1OP(=O)(O)O` [phytate, inositol hexaphosphate], the “effect on bioavailability of oligoelements such as Zn(II) and Fe(III)” value is “do not affect the bioavailability”.
